{"sequences": {"note": "Chains of the proteins cited; added tags and fusions are not shown. Lines headed by an entry give the natural chain unless they say otherwise; changes in a name come on top.", "UniProt P50591": "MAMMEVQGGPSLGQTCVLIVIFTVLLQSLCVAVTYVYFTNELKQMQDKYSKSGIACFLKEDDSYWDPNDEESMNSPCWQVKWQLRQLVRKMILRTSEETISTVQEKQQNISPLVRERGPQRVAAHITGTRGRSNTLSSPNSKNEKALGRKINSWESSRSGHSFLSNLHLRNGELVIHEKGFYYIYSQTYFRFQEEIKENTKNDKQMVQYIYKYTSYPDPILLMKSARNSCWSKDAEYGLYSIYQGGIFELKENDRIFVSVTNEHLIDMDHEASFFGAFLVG"}, "source": "paper PMC5566391", "molecular_target": "soluble DR5-Fc fusion protein (human) (UniProt O14763)", "experiment": "BLI; biotinylated DR5-Fc (10 µg/mL) immobilised on streptavidin biosensors for 300 s; analytes in serial dilutions 15.4 nM-123.5 nM; dissociation in PBS; 25 °C, PBS; ForteBio Octet", "data": [{"substance": "TRAIL-Trimer fusion protein (from UniProt P50591 39-281) (ligand)", "values": [{"measurement": "Kd", "value": "< 1", "unit": "pM"}, {"measurement": "koff", "value": "< 1e-07", "unit": "s⁻¹"}, {"measurement": "kon", "value": 81000, "unit": "M⁻¹ s⁻¹"}]}]}
